Screening results deposited in PubChem by Broad Institute.
Hits are enriched below; roughly 2.8% of the tested compounds scored in any of these assays.
esBAF inh: Bmi1 luciferase reporter increase in mESCs, primary screen, esBAF inhibitor project, mouse ES cells, Bmi1 luciferase knock-in, single point. 24 h; 100% = twice the neutral-well signal. 350,000 tested, 2% active. reporter increase, % at 12.5 µM; in the data active = activation above about 40%; inconclusive = no clear call, values can overlap the other calls;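 also: 0% = median of the plate's neutral control wells and 100% = double that signal; a rise in the Bmi1 reporter signal indicates esBAF inhibition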
MITF act: activators of MITF-driven TRPM1 promoter reporter, primary screen, cell-based, SK-MEL-5, luciferase, single point; SK-MEL-5 TRPM1-promoter luciferase, 24 h; % of positive control, neutral wells = 0; 300,000 tested, 0.75% active; activation, % at 12.5 µM;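 active = mean activation of at least 80% with every replicate also reaching 80%; inconclusive = mean reaches 80% but some replicate falls short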;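 also: 0% = neutral control wells and 100% = parthenolide positive control wells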
miR-122 sensor: miR-122 Renilla sensor signal increase in Huh7, primary screen, miR-122 inhibitor project, cell-based, single point, plate reader; 340,000 tested, 0.3% active; Huh7 miR-122 Renilla luciferase sensor, 48 h; neutral wells = 0, positive control = 100; AID 602342, 2012; activation (reporter increase), % at 12.5 µM;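 active = mean replicate activation score at least 90 and every replicate individually at or above 90; inconclusive = only one of the two criteria met; inactive = neither criterion met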;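 also: higher luciferase means less miR-122 activity so hits act as miR-122 inhibitors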
PglD inh: C. jejuni PglD acetyltransferase inhibitors, primary screen, biochemical, DTNB colorimetric, single point. UDP-N-acetylbacillosamine N-acetyltransferase PglD (Campylobacter jejuni). inhibition, % at 12.5 µM. purified PglD enzyme, DTNB colorimetric CoA detection. 360,000 tested, 0.098% active; in the data active = inhibition above about 16%, passing the limit was not always enough; inconclusive = no clear call, values can overlap the other calls
UUG fidelity: alters start codon recognition fidelity in yeast | S. cerevisiae UUG-firefly luciferase reporter, luminescence/redox ratio | activity score, % at 18.7 µM | 350,000 compounds, 0.13% hits | AID 602363;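 active = replicate mean at a twofold rise or more, about +100% in these data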;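 note: firefly luciferase made from a UUG start codon reports start codon fidelity; reporter light over untreated wells divided by growth signal over untreated wells; some hits fall short of that in this replicate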
Wnt act: Wnt/beta-catenin pathway activators, primary screen, cell-based, plate reader, single point; Wnt/beta-catenin reporter cell assay, activator; activation, % at 9.35 µM; 300,000 tested, 1.2% active; AID 743398, 2014; in the data active = activation above about 30%, passing the limit was not always enough; inconclusive = no clear call, values can overlap the other calls;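 also: 0% = neutral control wells and 100% = positive control wells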
Numbers without * were called inactive; ? = inconclusive; / = no result; [ ] = dose if it differs, or a comment.

#1 C[C@H]1CN([C@@H](C)CO)C(=O)c2cc(NC(=O)NC3CCCCC3)ccc2O[C@H]1CN(C)C
#2 Cc1ccc(O)c(N=Nc2ccccc2)n1
#3 C[C@@H]1CN([C@H](C)CO)C(=O)c2cc(-c3cccnc3)cnc2O[C@H]1CN(C)C(=O)c1cccc(F)c1
#4 c1cnc2c(OCc3cn4cccnc4n3)cccc2c1
#5 Cc1cc(Cl)ccc1OCc1cn2cccnc2n1

| assay / compound | 1 | 2 | 3 | 4 | 5 |
| --- | --- | --- | --- | --- | --- |
| esBAF inh | -2 | 63* | 4 | 12 | / |
| MITF act | / | 68 | / | 2 | 83* |
| miR-122 sensor | -2[16.7 µM] | -4 | -5[16.7 µM] | -5 | / |
| PglD inh | 4 | 5 | 1 | -2 | / |
| UUG fidelity | -7 | 2 | 2 | -22 | / |
| Wnt act | / | 41* | / | 0 | 16 |

A draw from above in order of molecular weight, high to low.
#4 c1cnc2c(OCc3cn4cccnc4n3)cccc2c1
#5 Cc1cc(Cl)ccc1OCc1cn2cccnc2n1
#2 Cc1ccc(O)c(N=Nc2ccccc2)n1

| assay / compound | 4 | 5 | 2 |
| --- | --- | --- | --- |
| esBAF inh | 12 | / | 63* |
| MITF act | 2 | 83* | 68 |
| miR-122 sensor | -5 | / | -4 |
| PglD inh | -2 | / | 5 |
| UUG fidelity | -22 | / | 2 |
| Wnt act | 0 | 16 | 41* |

(listing goes on)
#6 Clc1ccc(OCc2cn3cccnc3n2)c2ncccc12
#7 CN(C)c1ccc(/C=N/NC(=O)CSc2ccccn2)cc1
#8 O=C(CSc1ncccn1)N/N=C/c1ccc2c(c1)OCO2
#9 O=C(CNc1ccccc1)N/N=C/c1ccc2c(c1)OCO2
#10 C[C@@H]1CN([C@H](C)CO)S(=O)(=O)c2ccc(C#CC3(O)CCCC3)cc2O[C@@H]1CN(C)C(=O)c1ccccc1

| assay / compound | 6 | 7 | 8 | 9 | 10 |
| --- | --- | --- | --- | --- | --- |
| esBAF inh | 57* | / | 41* | 11 | 8 |
| MITF act | 35 | / | 54 | 4 | / |
| miR-122 sensor | -4 | -1 | / | -13 | 1[16.7 µM] |
| PglD inh | -2 | -1 | -1 | / | -2 |
| UUG fidelity | -22 | -12 | -6 | / | 11 |
| Wnt act | / | 48* | 0 | 14 | / |

#11 CCOc1ccc(-c2nnc(-c3ccccc3)n2-c2ccccc2)cc1
#12 NC1=NC(=O)/C(=C/C=C/c2cccs2)S1
#13 Cc1ccsc1/C=C1\SC(N)=NC1=O
#14 CC1(C)CC(=O)C=C(c2ccc(-c3ccccc3)cc2)C1
#15 COc1ccc(C2=CC(=O)CC(C)(C)C2=O)cc1

| assay / compound | 11 | 12 | 13 | 14 | 15 |
| --- | --- | --- | --- | --- | --- |
| esBAF inh | 24 | / | / | 74* | / |
| MITF act | / | 38 | 5 | 142* | / |
| miR-122 sensor | 4 | / | -7 | -4 | / |
| PglD inh | -4 | / | / | 0 | / |
| UUG fidelity | -25 | / | / | -6 | / |
| Wnt act | 59* | 36* | / | 27 | 0 |

#16 CC1(C)CC(=O)C=C(c2ccc(-c3ccc(OC(F)(F)F)cc3)cc2)C1=O
#17 CC1(C)CC(=O)C=C(c2ccc(-c3ccccc3)cc2)C1=O
#18 COC(=O)C[C@H]1CC[C@@H](NC(=O)c2ccccc2)[C@H](CO)O1
#19 O=C(NCC[C@@H]1CC[C@H](NS(=O)(=O)c2cccc(F)c2)[C@@H](CO)O1)C1CCCCC1
#20 C[C@@H]1CCCCO[C@H](CN(C)Cc2ccc(C(F)(F)F)cc2)[C@@H](C)CN([C@@H](C)CO)C(=O)c2cc(NC(=O)Nc3ccc4c(c3)OCO4)ccc2O1

| assay / compound | 16 | 17 | 18 | 19 | 20 |
| --- | --- | --- | --- | --- | --- |
| esBAF inh | 56* | 78* | 5 | 6 | -2 |
| MITF act | / | / | / | / | / |
| miR-122 sensor | -1 | 1 | / | / | -6[16.7 µM] |
| PglD inh | 0 | -4 | 1 | 3 | 5 |
| UUG fidelity | -15 | -17 | -13 | -13 | 4 |
| Wnt act | 7 | -2 | / | / | / |

#21 COC(=O)C1CCN(C(=O)/C=C/c2ccc(OC)cc2)CC1
#22 CCOC(=O)C1CCN(C(=O)/C=C/c2ccccc2)CC1
#23 CCOC(=O)C1CCCN(C(=O)/C=C/c2ccccc2)CC1 (stereo not drawn)
#24 C[C@H]1CN([C@@H](C)CO)C(=O)c2cc(-c3ccncc3)cnc2O[C@@H]1CN(C)Cc1cccnc1
#25 CC1=NN(C(N)=S)C(=O)C1N=Nc1cccc(Cl)c1C (stereo not drawn)

| assay / compound | 21 | 22 | 23 | 24 | 25 |
| --- | --- | --- | --- | --- | --- |
| esBAF inh | -6 | / | -8 | -7 | 51* |
| MITF act | 25 | 18 | / | / | / |
| miR-122 sensor | -2 | / | -2 | -3[16.7 µM] | / |
| PglD inh | -6 | / | 0 | 1 | -8 |
| UUG fidelity | 45 | / | / | -12 | -15 |
| Wnt act | 57* | 45* | / | / | 7 |

#26 CC1=NN(C(N)=S)C(=O)C1N=Nc1ccc(Cl)cc1 (stereo not drawn)
#27 C[C@H]1CN([C@@H](C)CO)C(=O)c2cc(-c3ccncc3)cnc2O[C@@H]1CN(C)Cc1ccc(F)cc1
#28 O=c1cc(-c2ccccc2F)oc2ccccc12
#29 O=c1cc(-c2ccccc2)oc2ccc(Br)cc12
#30 O=c1cc(-c2ccccc2)oc2ccc(Cl)cc12

| assay / compound | 26 | 27 | 28 | 29 | 30 |
| --- | --- | --- | --- | --- | --- |
| esBAF inh | 28 | -2 | 58* | 15 | / |
| MITF act | 80 | / | / | 47 | / |
| miR-122 sensor | 0 | 0[16.7 µM] | 3 | 7 | 2 |
| PglD inh | 1 | -2 | -1 | 2 | / |
| UUG fidelity | -11 | -5 | -22 | -14 | / |
| Wnt act | 22 | / | 47* | ? | 47* |

#31 Cc1ccccc1-c1cc(=O)c2ccccc2o1
#32 O=c1cc(-c2ccc3c(c2)OCCO3)oc2ccc(Cl)cc12
#33 O=C(C[C@H]1CC[C@H](NC(=O)c2ccccn2)[C@H](CO)O1)NCc1cccc(F)c1
#34 COc1ccc(-c2cnc3c(c2)C(=O)N([C@H](C)CO)C[C@H](C)[C@H](CN(C)C(=O)CN(C)C)O3)cc1
#35 c1ccc(C[n+]2c(-c3ccccc3)csc2Nc2ccccc2)cc1

| assay / compound | 31 | 32 | 33 | 34 | 35 |
| --- | --- | --- | --- | --- | --- |
| esBAF inh | 23 | -9 | 0 | 5 | / |
| MITF act | 1 | 5 | / | / | 4 |
| miR-122 sensor | -3 | / | / | -4[16.7 µM] | 3 |
| PglD inh | -3 | -3 | -5 | -2 | -4 |
| UUG fidelity | -8 | 1 | 16 | 1 | -24 |
| Wnt act | 5 | 47* | / | / | 1 |

#36 c1ccc(Nc2scc(-c3ccccc3)[n+]2Cc2ccco2)cc1
#37 COc1ccc(C(=O)Nc2sc(C)c(C)c2CN2CC(C)OC(C)C2)cc1 (stereo not drawn)
#38 Cc1sc(NC(=O)c2ccco2)c(CN2CCCCC2)c1C
#39 CC(OC(=O)c1ccc(-n2cnnn2)cc1)C(=O)Nc1ccccc1F (stereo not drawn)
#40 O=C(COc1ncnc2cc(Cl)ccc12)c1ccc2c(c1)OCCO2

| assay / compound | 36 | 37 | 38 | 39 | 40 |
| --- | --- | --- | --- | --- | --- |
| esBAF inh | / | 72* | 4 | 2 | 59* |
| MITF act | 72 | 10 | / | 5 | 80 |
| miR-122 sensor | / | -9 | -6 | 2 | 18 |
| PglD inh | / | / | 2 | 0 | 8 |
| UUG fidelity | / | / | -18 | -7 | -15 |
| Wnt act | 53* | 9 | 6 | 51* | 55* |

#41 O=C(NC1CCC1)[C@@H]1[C@@H](CO)[C@@H]2Cn3c(cccc3=O)[C@@H]2N1CCc1ccccc1
#42 CCNC(=O)C[C@@H]1CC[C@H]2[C@H](COc3ccc(NC(=O)Nc4ccc(F)cc4)cc3C(=O)N2C)O1
#43 C[C@H]1CN([C@@H](C)CO)C(=O)CCCn2cc(nn2)CO[C@H]1CN(C)Cc1cccc2c1OCCCO2
#44 COc1cc(C)c(S(=O)(=O)NOCc2ccc([N+](=O)[O-])cc2)c(C)c1C
#45 C[C@@H]1CN([C@@H](C)CO)C(=O)c2cc(-c3cccc(F)c3)cnc2O[C@@H]1CN(C)C(=O)C1CCC1
#46 CC1(C)Cc2c(sc3nc(-c4cccs4)n(N)c(=O)c23)CO1
#47 CCc1nc2sc3c(c2c(=O)n1N)CC(C)(C)OC3
#48 Nn1c(-c2cccs2)nc2sc3c(c2c1=O)CCCC3

| assay / compound | 41 | 42 | 43 | 44 | 45 | 46 | 47 | 48 |
| --- | --- | --- | --- | --- | --- | --- | --- | --- |
| esBAF inh | 3 | -2 | -6 | 0 | -7 | 73* | / | 28 |
| MITF act | / | / | / | / | / | 44 | -12 | 26 |
| miR-122 sensor | / | 25[16.7 µM] | -5[16.7 µM] | 323* | 22[16.7 µM] | -17 | / | 3 |
| PglD inh | -2 | 0 | 0 | 5 | -2 | -2 | / | -11 |
| UUG fidelity | / | -6 | / | -5 | 42 | -11 | / | -21 |
| Wnt act | / | / | / | 0 | / | / | -2 | / |
